Test results reported in PubChem BioAssay (NCI).
Values joined by “and” are separate entries in the source; they are usually repeats but may differ in a detail not shown here. Identical values can stand only once. The entries are a selection whose mix differs from that of the whole data set. Some results for these compounds are left out of this collection, so the calls shown say nothing about other tests.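 Growth was measured after 48 h exposure to one concentration of compound in 96-well plates. Values under 10 count as active.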 Active and inactive are the calls of the source.

How the values were obtained:
Assay in all cases: NCI-60 one-dose screen, 48 h (100 = growth as untreated, 0 = no growth, -100 = all killed)
Conditions in all cases: 10 µM
NCI-H23 lung = tested on: NCI-H23 lung
NCI-H226 lung = tested on: NCI-H226 lung
NCI-H322M lung = tested on: NCI-H322M lung
HOP-62 NSCLC = tested on: HOP-62 NSCLC
NCI-H460 lung = tested on: NCI-H460 lung
HOP-92 NSCLC = tested on: HOP-92 NSCLC
NCI-H522 lung = tested on: NCI-H522 lung
A549/ATCC NSCLC = tested on: A549/ATCC NSCLC
786-0 renal = tested on: 786-0 renal
COLO 205 colon = tested on: COLO 205 colon

Measured: growth

ClCCN(CCCl)Cc1ccc(Cl)c(Cl)c1
inactive: NCI-H23 lung 95.2% | NCI-H226 lung 102% | NCI-H322M lung 97.1% | HOP-62 NSCLC 110% | NCI-H460 lung 114% | HOP-92 NSCLC 97% | NCI-H522 lung 93.2% | A549/ATCC NSCLC 99.6% | 786-0 renal 98.5% | COLO 205 colon 113%

ClCCN(CCCl)Cc1cc(Cl)cc(Cl)c1
inactive: NCI-H23 lung 74.2% | NCI-H226 lung 87.2% | NCI-H322M lung 85.8% | HOP-62 NSCLC 63.1% | NCI-H460 lung 24.2% | HOP-92 NSCLC 59.8% | NCI-H522 lung 65.2% | A549/ATCC NSCLC 71.4% | 786-0 renal 71% | COLO 205 colon 80.3%

N#CC(C#N)=Cc1ccccc1Cl
inactive: NCI-H23 lung 98.7% | NCI-H226 lung 95.9% | NCI-H322M lung 103% | NCI-H460 lung 114% | HOP-92 NSCLC 113% | NCI-H522 lung 114% | A549/ATCC NSCLC 104% | 786-0 renal 101% | COLO 205 colon 112%

N#CC(C#N)=Cc1ccc(Br)cc1
inactive: NCI-H23 lung 101% and 99.5% | NCI-H226 lung 99.7% and 96% | NCI-H322M lung 107% and 100% | HOP-62 NSCLC 108% | NCI-H460 lung 106% and 108% | HOP-92 NSCLC 109% and 97.6% | NCI-H522 lung 93.2% and 96.7% | A549/ATCC NSCLC 105% and 101% | 786-0 renal 105% | COLO 205 colon 112% and 111%

CC(C)(C)N(CCCl)CCCl
inactive: NCI-H23 lung 105% | NCI-H226 lung 97.8% | NCI-H322M lung 107% | HOP-62 NSCLC 112% | NCI-H460 lung 104% | HOP-92 NSCLC 89.5% | NCI-H522 lung 82.8% | A549/ATCC NSCLC 94.3% | 786-0 renal 102% | COLO 205 colon 108%

ClCCN(CCCl)C1CCCCC1
inactive: NCI-H23 lung 101% | NCI-H226 lung 82.5% | NCI-H322M lung 93.2% | HOP-62 NSCLC 107% | NCI-H460 lung 91.4% | HOP-92 NSCLC 101% | NCI-H522 lung 94.8% | A549/ATCC NSCLC 93.5% | 786-0 renal 105% | COLO 205 colon 112%

COCc1c(CN(CCCl)CCCl)cnc(C)c1O
inactive: NCI-H23 lung 102% | NCI-H226 lung 87.1% | NCI-H322M lung 105% | NCI-H460 lung 96.6% | HOP-92 NSCLC 84.3% | NCI-H522 lung 99.5% | A549/ATCC NSCLC 112% | 786-0 renal 105% | COLO 205 colon 103%

ClCCN(CCCl)C1c2ccccc2-c2ccccc21
inactive: NCI-H23 lung 93.2% | NCI-H226 lung 89.1% | NCI-H322M lung 85.1% | HOP-62 NSCLC 89.4% | NCI-H460 lung 77.2% | HOP-92 NSCLC 85.1% | NCI-H522 lung 44.3% | A549/ATCC NSCLC 80.9% | 786-0 renal 93.7% | COLO 205 colon 87.2%

Cc1cc2nc(CN(CCCl)CCCl)[nH]c2cc1C
inactive: NCI-H23 lung 78.6% | NCI-H226 lung 76.7% | NCI-H322M lung 121% | HOP-62 NSCLC 79% | NCI-H460 lung 43.7% | HOP-92 NSCLC 58.2% | NCI-H522 lung 75.1% | A549/ATCC NSCLC 84.8% | 786-0 renal 81.5% | COLO 205 colon 83.3%

CN(CCBr)CCBr
inactive: NCI-H23 lung 105% | NCI-H226 lung 103% | NCI-H322M lung 101% | HOP-62 NSCLC 108% | NCI-H460 lung 77.6% | HOP-92 NSCLC 69.6% | NCI-H522 lung 76.9% | A549/ATCC NSCLC 89.6% | 786-0 renal 98.4% | COLO 205 colon 87.3%

CCOc1ccc([N+](=O)[O-])cc1CN(CCCl)CCCl
inactive: NCI-H23 lung 93.2% | NCI-H226 lung 99.4% | NCI-H322M lung 98.7% | HOP-62 NSCLC 108% | NCI-H460 lung 105% | HOP-92 NSCLC 87.2% | NCI-H522 lung 72.7% | A549/ATCC NSCLC 96.3% | 786-0 renal 89.9% | COLO 205 colon 108%

Fc1cccc(CN(CCCl)CCCl)c1
inactive: NCI-H23 lung 98.5% | NCI-H226 lung 108% | NCI-H322M lung 108% | HOP-62 NSCLC 97.5% | NCI-H460 lung 66.6% | HOP-92 NSCLC 77.9% | NCI-H522 lung 79% | A549/ATCC NSCLC 89.4% | 786-0 renal 97.9% | COLO 205 colon 91%

COc1ccc([N+](=O)[O-])cc1CN(CCCl)CCCl
inactive: NCI-H23 lung 104% | NCI-H226 lung 94.5% | NCI-H322M lung 102% | HOP-62 NSCLC 113% | NCI-H460 lung 86.5% | HOP-92 NSCLC 109% | NCI-H522 lung 90.8% | A549/ATCC NSCLC 88.1% | 786-0 renal 101% | COLO 205 colon 98.4%

COc1ccc(N=C=S)cc1CN(CCCl)CCCl
inactive: NCI-H23 lung 66.5% | NCI-H226 lung 71.2% | NCI-H322M lung 99.8% | HOP-62 NSCLC 54.9% | NCI-H460 lung 29.1% | HOP-92 NSCLC 67.1% | NCI-H522 lung 30.2% | A549/ATCC NSCLC 65.7% | 786-0 renal 55.4% | COLO 205 colon 61.5%

CCNCCCl
inactive: NCI-H23 lung 115% | NCI-H226 lung 113% | NCI-H322M lung 106% | HOP-62 NSCLC 113% | NCI-H460 lung 107% | A549/ATCC NSCLC 104% | 786-0 renal 111% | COLO 205 colon 109%

CN(C)CCOC(=O)C(O)(c1ccccc1)c1ccccc1
inactive: NCI-H23 lung 110% | NCI-H226 lung 108% | NCI-H322M lung 88% | HOP-62 NSCLC 89.2% | NCI-H460 lung 116% | HOP-92 NSCLC 89.2% | NCI-H522 lung 119% | A549/ATCC NSCLC 106% | 786-0 renal 115% | COLO 205 colon 122%

ClCCCCCC(CCl)NCCCl (stereo not given)
inactive: NCI-H23 lung 71% | NCI-H226 lung 86% | NCI-H322M lung 96.8% | NCI-H460 lung 39.3% | HOP-92 NSCLC 90.7% | NCI-H522 lung 94.9% | A549/ATCC NSCLC 66.8% | 786-0 renal 88.5% | COLO 205 colon 96.7%

O=C(OCCN1CCCC1)C(O)(c1ccccc1)c1ccccc1
inactive: NCI-H23 lung 105% | NCI-H226 lung 109% | HOP-62 NSCLC 96% | NCI-H460 lung 110% | 786-0 renal 106% | COLO 205 colon 105%

CCCN(CCCl)CCCl
inactive: NCI-H23 lung 120% | NCI-H226 lung 98.7% | NCI-H322M lung 105% | HOP-62 NSCLC 102% | NCI-H460 lung 102% | HOP-92 NSCLC 93.6% | NCI-H522 lung 86.1% | A549/ATCC NSCLC 97.3% | 786-0 renal 108% | COLO 205 colon 103%

N#CC(C#N)=Cc1cccc(Br)c1
inactive: NCI-H23 lung 104% | NCI-H226 lung 97.5% | NCI-H322M lung 113% | HOP-62 NSCLC 102% | NCI-H460 lung 102% | HOP-92 NSCLC 86% | NCI-H522 lung 90.6% | A549/ATCC NSCLC 101% | 786-0 renal 99.4% | COLO 205 colon 113%

CC[N+](C)(C)Cc1cccc(Cc2ccccc2)c1OC(=O)N(C)C
inactive: NCI-H23 lung 98.6% | NCI-H226 lung 97.1% | NCI-H322M lung 92.2% | HOP-62 NSCLC 100% | NCI-H460 lung 108% | HOP-92 NSCLC 102% | NCI-H522 lung 102% | A549/ATCC NSCLC 97.1% | 786-0 renal 99.1% | COLO 205 colon 107%

BrCCN(CCBr)Cc1ccccc1
inactive: NCI-H23 lung 104% | NCI-H226 lung 105% | NCI-H322M lung 112% | HOP-62 NSCLC 109% | NCI-H460 lung 101% | HOP-92 NSCLC 86.8% | NCI-H522 lung 96.7% | A549/ATCC NSCLC 113% | 786-0 renal 113% | COLO 205 colon 117%

ClCCN(CCCl)Cc1ccsc1Br
inactive: NCI-H23 lung 94.1% | NCI-H226 lung 93.2% | NCI-H322M lung 106% | HOP-62 NSCLC 92.1% | NCI-H460 lung 37.9% | HOP-92 NSCLC 84.2% | NCI-H522 lung 99.7% | A549/ATCC NSCLC 81.1% | 786-0 renal 105%

CC(=O)CI
inactive: NCI-H23 lung 104% | NCI-H226 lung 96.2% | NCI-H322M lung 107% | HOP-62 NSCLC 106% | NCI-H460 lung 109% | HOP-92 NSCLC 128% | NCI-H522 lung 100% | A549/ATCC NSCLC 101% | 786-0 renal 104% | COLO 205 colon 112%
